Experiments:
Acute toxicity = format: in vivo, mice (ddy); conditions: mouse, in vivo, ip; ddy mice, single i.p., 14 days, Behren Korber's method
ddy mice = assay: Acute toxicity; format: in vivo

Row | Compound | LD50 at 336 h (Acute toxicity) | LD50 ip (ddy mice; ddy mice, single i.p., 14 days, Behren Korber's method) | (C.I.)* = (LD50/ED50)/[(LD50/ED50) of MMC1] (ddy mice; relative to mitomycin C, ip)
1 | CO[C@@]12[C@H](COC(N)=O)C3=C(C(=O)C(C)=C(NCCSSCCC(=O)N[C@@H](CCCN)C(=O)O)C3=O)N1C[C@@H]1N[C@@H]12 [Compound 22, 7-N-[2-[[2-[[(1S)-4-amino-1-carboxybutyl]carbamoyl]ethyl]dithio]ethyl]mitomycin C] | 37.5 mg/kg |  | 
2 | CO[C@@]12[C@H](COC(N)=O)C3=C(C(=O)C(C)=C(NCCSSCc4c[nH]c(=O)[nH]c4=O)C3=O)N1C[C@@H]1N[C@@H]12 [Compound 37, 7-N-[2-[[(2,4-dioxopyrimidin-5-yl)methyl]dithio]ethyl]mitomycin C] | 37.5 mg/kg |  | 
3 | 7-N-[2-[[2-[[(1S)-5-amino-1-carboxypentyl]carbamoyl]ethyl]dithio]ethyl]mitomycin C [Compound 23] |  | 37.5 mg/kg | 2.14
4 | CO[C@@]12[C@H](COC(N)=O)C3=C(C(=O)C(C)=C(NCCSSCCS(=O)(=O)O)C3=O)N1C[C@@H]1N[C@@H]12 [Compound 36, 7-N-[2-[(2-sulfoethyl)dithio]ethyl]mitomycin C] | 37.5 mg/kg |  | 
5 | CCOC(=O)CNC(=O)C(C)SSCCNC1=C(C)C(=O)C2=C(C1=O)[C@@H](COC(N)=O)[C@@]1(OC)[C@H]3N[C@H]3CN21 (stereo partly shown) [Compound 30, 7-N-[2-[[1-[[(ethoxycarbonyl)methyl]carbamoyl]ethyl]dithio]ethyl]mitomycin C] | 37.5 mg/kg |  | 
6 | CO[C@@]12[C@H](COC(N)=O)C3=C(C(=O)C(C)=C(NCCSSCCNC(=O)[C@@H](N)CCC(=O)O)C3=O)N1C[C@@H]1N[C@@H]12 [Compound 9, 7-N-[2-[[2-(N^2 -L-glutamino)ethyl]dithio]ethyl]mitomycin C] | 37.5 mg/kg |  | 

Source: patent publication US5103018A, “Mitomycin derivatives” (Kyowa Hakko Kogyo Kabushiki Kaisha, priority 1986, dated 1992)
